## Measured affinities in a library of Ab-14 light chain variants

Target peptide (SARS-CoV-2 spike, HR2 region): PDVDLGDISGINAS

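Phage display of a naive human antibody library on the peptide gave the parent. The variants were designed computationally from a first round of random CDR variants and then made and measured. Their group label is 14L_En_Gibbs (En: ensemble of fine-tuned language models; Gibbs: Gibbs sampling). The assay is AlphaSeq: two haploid yeast populations carry antibody and antigen on their surface. Binding brings cells together so that they mate, and sequencing counts the barcode pairs among the diploids. A regression on co-assayed BCL2-family reference pairs converts the normalised counts of each replicate to an apparent Kd. Mating was done six times.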

Ab-14 is the parent antibody, in scFv form: VH, then the linker GGGGSGGGGSGGGGS, then VL. The heavy chain is unchanged in all variants.
VH: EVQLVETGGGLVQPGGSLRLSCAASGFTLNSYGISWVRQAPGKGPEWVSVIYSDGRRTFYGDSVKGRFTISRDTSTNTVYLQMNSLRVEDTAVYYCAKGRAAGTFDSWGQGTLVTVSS
VL: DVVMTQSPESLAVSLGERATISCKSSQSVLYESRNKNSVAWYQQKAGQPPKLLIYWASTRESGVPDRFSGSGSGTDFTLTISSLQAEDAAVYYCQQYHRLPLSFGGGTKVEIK

Each variant is given by its three light chain CDRs, as the data file delimits them; those of the parent are KSSQSVLYESRNKNSVA, WASTRES, QQYHRLPLS.
Numbers give log10(Kd / nM), so 0 is 1 nM and 3 is 1 µM. Smaller is tighter.
Replicates are averaged; those with no signal do not enter the mean.
A pair that was not seen in that replicate is written "n.d."; this usually means weak binding, but a binder can also be missed.
Values of this round are not directly comparable with the first-round values of the same sequences.
Background: pairings of all light chain designs with three empty control strains gave a value in 4% of cases (median 2.64, 5th percentile 1.59). Values in that range, when seen in few replicates, are hard to tell from nonspecific mating. Also given: how often the same scFv was detected with the empty control strains, with their mean in brackets.
The authors' rule: three or more of the six replicates give a measured affinity, fewer mean a poor binder.

| CDR-L1 | CDR-L2 | CDR-L3 | log10 Kd (nM) by replicate | mean log10 Kd (nM) | empty controls |
|---|---|---|---|---|---|
| KWQNDSLFMGQYMNNIA | NTSLRTM | QQYYRLPLT | 0.67 / 0.68 / 0.50 / 0.77 / 0.87 / 0.50 | 0.66 | 0/18 |
| KIRVHNLMFSQNESNIA | GMSVRSE | QQYYHLPLT | 0.96 / 1.02 / 0.94 / 1.20 / 0.77 / 1.35 | 1.04 | 3/18 (2.54) |
| ALRGVGYDEQVKHSAIA | DGEHVNQ | QQYSMLPLS | 0.41 / 0.67 / 0.56 / 0.33 / 0.47 / 0.63 | 0.51 | 1/18 (1.64) |
| KIELDLTRYNAGHANIA | HETMKAQ | QQYSRLPLI | 0.97 / 1.08 / 0.74 / 0.59 / 0.76 / 0.75 | 0.81 | 0/18 |
| KFAEQIMHVYQGANAIA | DVTNKSA | QQYLRLPLM | 1.07 / 2.10 / 1.41 / 1.19 / 1.77 / 1.87 | 1.57 | 0/18 |
| QLSMWEQNGGRSYSSVA | DDDVRMA | QQYHRLPLS | 0.55 / 0.35 / 1.70 / 0.77 / 0.94 / n.d. | 0.86 | 0/18 |
| RLSQTEEMDIRDYNAVA | NGSTVNT | QHYSRLPIS | n.d. / n.d. / n.d. / n.d. / n.d. / 2.59 | 2.59 | 1/18 (2.22) |
| AFTESIFYGQRDSNAIA | GADVVEK | QQYFRFPLM | 1.64 / 1.55 / 1.62 / 1.44 / 1.60 / 1.82 | 1.61 | 0/18 |
| KMTKQEQSIGSHQANIA | DSNKITD | QQYYRLPLT | -0.01 / -0.12 / -0.23 / -0.28 / -0.35 / -0.10 | -0.18 | 4/18 (3.02) |
| VYNLPFEGYQPKKYSIA | NAEIREY | QQYSRLPIL | 1.69 / 1.11 / 2.51 / 1.87 / 0.85 / 1.96 | 1.67 | 0/18 |
| RISQIIQENVRQYNAVA | NGMTRNA | QHYSRLPLE | 0.42 / 0.36 / 0.22 / 0.37 / 0.25 / 0.38 | 0.33 | 3/18 (2.48) |
| KMKQSIEGNPKNWNSIA | DVDSTIE | QQYARLPLF | 0.26 / 0.09 / 0.18 / 0.07 / -0.02 / -0.31 | 0.04 | 0/18 |
| KLMVFPTNAGMTQANIA | DASHSTD | QQYERLPLM | 0.76 / 1.25 / 1.03 / 0.74 / 0.70 / 0.51 | 0.83 | 1/18 (2.00) |
| HLSLRLSYGNMLNKAVA | EVQARVT | QQYARLPLL | n.d. / n.d. / n.d. / n.d. / n.d. / 1.79 | 1.79 | 1/18 (1.43) |
| MFDWGELPNGQKTSSIA | QGHMRAG | QQYYMLPLC | 0.60 / 0.80 / 0.52 / 0.52 / 0.45 / 0.73 | 0.60 | 2/18 (2.18) |
| KLSMETYGLTGHASSIA | HQEIRWA | QQYHKLPLI | 0.90 / 0.49 / 0.65 / 0.37 / 0.97 / 1.43 | 0.80 | 1/18 (1.71) |
| SFPSEMNQQQTQVNSVA | GEQHTAR | QQYGRLPLS | n.d. / n.d. / n.d. / n.d. / n.d. / n.d. | n.d. | 1/18 (1.53) |
| ASDHTEGSGKNADANVA | GDEQRAP | QQYHHLPLS | 1.04 / 1.66 / 1.04 / 1.11 / 1.35 / 1.32 | 1.25 | 0/18 |
| YLFNQRSYGDSDQRNIA | NGRMRED | QQYARLPLT | 0.08 / 0.03 / -0.11 / -0.13 / -0.17 / 0.05 | -0.04 | 1/18 (1.82) |
| RLTNEFFKEKEHKNSVA | HADQRCM | QQYFRLPLI | 1.06 / 0.77 / 0.72 / 0.90 / 0.81 / 1.09 | 0.89 | 7/18 (2.82) |
| VLMGWGADSIQHANSVA | DADEVDM | QQYAHLPLS | 2.77 / 2.97 / 4.43 / n.d. / 2.62 / 1.87 | 2.93 | 1/18 (2.99) |
| QIQGKLQHGGNQGANVA | QGVETKN | QQYYTLPLT | n.d. / n.d. / n.d. / n.d. / n.d. / n.d. | n.d. | 0/18 |
| NISIEDYSENNFANNVA | STDCRCD | QQYFMLPLM | 1.70 / 1.29 / 1.12 / 1.58 / 2.07 / 2.32 | 1.68 | 0/18 |
| NIRGVEFESAMMGNSVA | GVDLVEA | QQYFRLPLH | 0.77 / 0.63 / 0.91 / 0.71 / 0.55 / 1.02 | 0.77 | 1/18 (3.42) |
| HVSSMLMAGGGIYNNIA | GTKVLER | QQYMRLPLM | 0.49 / 0.35 / 0.33 / 0.53 / 0.48 / 0.68 | 0.48 | 2/18 (2.13) |
| SMHPFDVAIGKGTQNIA | HVSVRAS | QQYDRLPLV | 0.93 / 1.25 / 0.77 / 0.85 / 0.93 / 1.02 | 0.96 | 2/18 (2.47) |
| NLSIQNQPQNMFANNVA | QTESRCE | QQYFQLPLA | 1.09 / 0.50 / 0.76 / 0.58 / 0.90 / 0.96 | 0.80 | 0/18 |
| NLMSHMSELSVWKYSIA | SASIRGS | QQYFRLPLA | 2.25 / 1.10 / 0.39 / 1.24 / 1.14 / 1.15 | 1.21 | 1/18 (2.48) |
| NLMGQGADSIKHANSIA | NVDLVDM | QQYAHLPLS | 2.78 / n.d. / n.d. / 1.93 / n.d. / 2.62 | 2.44 | 0/18 |
| KIQDNLGELLQQINSVA | STEEKSD | QSYMRLPLI | 0.76 / 0.85 / 0.98 / 0.77 / 0.65 / 1.07 | 0.85 | 1/18 (2.73) |
| KLENSNRWNYRDTNAVA | QASNRAA | QQYQRLPFL | 0.79 / 0.97 / 0.69 / 0.44 / 0.67 / 0.81 | 0.73 | 1/18 (3.36) |
| KLDEKNRWNGMANYNVA | ASNTRVD | QQYHRLPLI | 0.57 / 0.71 / 0.41 / 0.77 / 0.38 / 0.61 | 0.57 | 0/18 |
| KIRVQQYSQSEMESNIA | GESVRHQ | QQYFHLPLT | 0.97 / 0.65 / 1.20 / 1.42 / 1.19 / 1.05 | 1.08 | 0/18 |
| HVDQVKYDQKTAQNNIA | SGAERVW | QQYSRLPFS | -0.26 / -0.33 / -0.29 / -0.18 / -0.41 / -0.13 | -0.27 | 1/18 (1.31) |
| NFYMDAAEFVNEDSSIA | DAEISYD | QQYHRLPLV | 1.40 / n.d. / 1.57 / 1.73 / 1.73 / 2.77 | 1.84 | 1/18 (2.64) |
| KLSSEYFDSYGERQAVA | ENEATMN | QQYSLLPLS | n.d. / 1.70 / 2.65 / n.d. / n.d. / 2.78 | 2.38 | 0/18 |
| TITGEQSMRTQGNWNIA | QAEQKVH | QQYDRLPLA | 1.43 / 1.90 / 1.13 / 1.22 / 1.01 / 1.43 | 1.35 | 1/18 (3.23) |
| KVTFYMQGSNAMDNSIA | QTNIYHE | QQYGRLPLV | n.d. / 2.78 / n.d. / 1.78 / 2.03 / n.d. | 2.20 | 0/18 |
| NITGMVNGKGTTTKNIA | EAEFRAG | QQYSRLPLS | 0.16 / 0.42 / 0.51 / 0.25 / 0.69 / 0.48 | 0.42 | 0/18 |
| KFNISKEGVTRTGKSIA | GAQTIDE | QQYARLPLA | 0.56 / 0.76 / 0.59 / 0.39 / 1.14 / 0.83 | 0.71 | 1/18 (1.63) |
| KFHMGWEAGQRKHDNVA | EANLRFS | QQYNHLPLI | 1.19 / 1.09 / 1.00 / 0.70 / 0.96 / 1.18 | 1.02 | 0/18 |
| VLGGQWGLGTTQNSSIA | NVSETML | QQYWRLPLM | n.d. / 1.48 / 1.24 / 1.43 / n.d. / 2.07 | 1.55 | 0/18 |
| TMNHELIQDDPMYNNVA | DGSLKTA | QQYYRLPLS | 1.09 / 0.82 / 0.56 / 0.74 / 0.85 / 0.81 | 0.81 | 1/18 (3.47) |

For reference, 7 entries of the list once more:

{"CDR-L1": "KLENSNRWNYRDTNAVA", "CDR-L2": "QASNRAA", "CDR-L3": "QQYQRLPFL", "log10 Kd (nM) by replicate": "0.79 / 0.97 / 0.69 / 0.44 / 0.67 / 0.81", "mean log10 Kd (nM)": "0.73", "empty controls": "1/18 (3.36)"}
{"CDR-L1": "NFYMDAAEFVNEDSSIA", "CDR-L2": "DAEISYD", "CDR-L3": "QQYHRLPLV", "log10 Kd (nM) by replicate": "1.40 / n.d. / 1.57 / 1.73 / 1.73 / 2.77", "mean log10 Kd (nM)": "1.84", "empty controls": "1/18 (2.64)"}
{"CDR-L1": "KLDEKNRWNGMANYNVA", "CDR-L2": "ASNTRVD", "CDR-L3": "QQYHRLPLI", "log10 Kd (nM) by replicate": "0.57 / 0.71 / 0.41 / 0.77 / 0.38 / 0.61", "mean log10 Kd (nM)": "0.57", "empty controls": "0/18"}
{"CDR-L1": "KFHMGWEAGQRKHDNVA", "CDR-L2": "EANLRFS", "CDR-L3": "QQYNHLPLI", "log10 Kd (nM) by replicate": "1.19 / 1.09 / 1.00 / 0.70 / 0.96 / 1.18", "mean log10 Kd (nM)": "1.02", "empty controls": "0/18"}
{"CDR-L1": "ALRGVGYDEQVKHSAIA", "CDR-L2": "DGEHVNQ", "CDR-L3": "QQYSMLPLS", "log10 Kd (nM) by replicate": "0.41 / 0.67 / 0.56 / 0.33 / 0.47 / 0.63", "mean log10 Kd (nM)": "0.51", "empty controls": "1/18 (1.64)"}
{"CDR-L1": "KLSSEYFDSYGERQAVA", "CDR-L2": "ENEATMN", "CDR-L3": "QQYSLLPLS", "log10 Kd (nM) by replicate": "n.d. / 1.70 / 2.65 / n.d. / n.d. / 2.78", "mean log10 Kd (nM)": "2.38", "empty controls": "0/18"}
{"CDR-L1": "KIRVHNLMFSQNESNIA", "CDR-L2": "GMSVRSE", "CDR-L3": "QQYYHLPLT", "log10 Kd (nM) by replicate": "0.96 / 1.02 / 0.94 / 1.20 / 0.77 / 1.35", "mean log10 Kd (nM)": "1.04", "empty controls": "3/18 (2.54)"}

Source: Li et al. 2023 (doi:10.1038/s41467-023-39022-2), MIT Lincoln Laboratory and A-Alpha Bio; data file from the FLAb repository.